1 substance from PMC10665015 can be followed below.

In the assay the target is FtsH (thylakoid hetero-oligomeric FtsH complex composed of FtsH1 (type-A) and FtsH2 (type-B)), Chlamydomonas reinhardtii (C. reinhardtii (endogenous in thylakoid membranes)).

Consider “Photosystem II reaction center protein D1 (PsbA) W14F/W317F, Chlamydomonas reinhardtii (from UniProt P07753 1-344) (natural protein)”, for which the D1 degradation assay: D1 level left (immunoblot) in cells under high light with chloramphenicol, time course to 90 min (% of the initial level) was found to be 50.
